Experimental data reported in ChEMBL document CHEMBL4814076, “Discovery of a Potent and Selective Covalent Inhibitor of Bruton's Tyrosine Kinase with Oral Anti-Inflammatory Activity” (ACS Med Chem Lett, 2021).

Sequences of proteins named here, by UniProt entry; tags and fusion partners are left off. A change or cut given only in a name is not applied to a line headed by its entry.
UniProt Q06187: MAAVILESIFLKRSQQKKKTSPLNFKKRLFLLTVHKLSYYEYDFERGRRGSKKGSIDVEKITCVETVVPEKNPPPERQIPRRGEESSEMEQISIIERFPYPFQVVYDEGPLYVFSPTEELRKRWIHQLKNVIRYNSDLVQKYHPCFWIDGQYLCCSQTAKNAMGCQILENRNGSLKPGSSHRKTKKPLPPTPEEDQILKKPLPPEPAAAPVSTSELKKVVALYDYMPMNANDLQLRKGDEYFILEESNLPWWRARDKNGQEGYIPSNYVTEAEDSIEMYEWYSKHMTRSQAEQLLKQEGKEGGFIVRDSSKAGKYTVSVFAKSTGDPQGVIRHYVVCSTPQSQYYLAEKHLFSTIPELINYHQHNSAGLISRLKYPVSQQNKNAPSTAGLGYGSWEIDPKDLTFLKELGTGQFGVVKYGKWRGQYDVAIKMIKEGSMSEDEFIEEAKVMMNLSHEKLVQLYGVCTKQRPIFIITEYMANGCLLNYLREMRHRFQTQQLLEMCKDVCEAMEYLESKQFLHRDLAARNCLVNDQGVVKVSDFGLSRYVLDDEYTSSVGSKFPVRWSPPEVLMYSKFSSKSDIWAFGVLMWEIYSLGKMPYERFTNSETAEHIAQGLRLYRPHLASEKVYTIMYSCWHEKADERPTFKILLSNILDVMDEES

Legend:
[1] = target: T1, Tyrosine-protein kinase BTK (Homo sapiens, UniProt Q06187); test: Covalent inhibition of recombinant human GST-tagged BTK (2 to 659 end residues) expressed in baculovirus expression system assessed as inactivation constant using NH2-KKKAPFSWYLPEEG as substrate measured every 2 mins for 2 hrs in presence of ATP by microplate reader assay
[2] = target: T1, Tyrosine-protein kinase BTK; test: Covalent inhibition of recombinant human GST-tagged BTK (2 to 659 end residues) expressed in baculovirus expression system assessed as Kinact/Ki ratio using NH2-KKKAPFSWYLPEEG as substrate measured every 2 mins for 2 hrs in presence of ATP by microplate reader assay

## C=CC(=O)N1CC(NC(=O)c2sc3nccc4c3c2NC(=O)N4c2ccc(Oc3ccccc3)cc2C)C1
[1]
  Kinact: 0.000128 s⁻¹
[2]
  Ratio: 908 M⁻¹ s⁻¹

## C=CC(=O)N1CCC[C@@H](NC(=O)c2sc3nccc4c3c2NC(=O)N4c2ccc(Oc3ccccc3)cc2Cl)C1
[1]
  Kinact: 0.000376 s⁻¹
[2]
  Ratio: 30600 M⁻¹ s⁻¹

## C=CC(=O)N1CCC[C@@H](NC(=O)c2sc3nccc4c3c2NC(=O)N4c2ccc(OC(C)C)cc2C)C1
[1]
  Kinact: 0.000304 s⁻¹
[2]
  Ratio: 902 M⁻¹ s⁻¹

## C=CC(=O)C[C@@H]1CC[C@@H](NC(=O)c2sc3nccc4c3c2NC(=O)N4c2ccc(Oc3ccccc3)cc2C)C1
[1]
  Kinact: 0.000337 s⁻¹
[2]
  Ratio: 28800 M⁻¹ s⁻¹

## C=CC(=O)N1CCC[C@@H](NC(=O)c2sc3nccc4c3c2NC(=O)N4c2ccc(Oc3ccccc3)cc2C)C1 (stereo in doubt; 16)
[1]
  Kinact: 0.000404 s⁻¹
[2]
  Ratio: 2690 M⁻¹ s⁻¹

## C=CC(=O)N1CCC[C@@H](NC(=O)c2sc3nccc4c3c2NC(=O)N4c2ccc(Oc3ccccc3)cc2C)C1 (stereo in doubt; 17)
[1]
  Kinact: 0.00045 s⁻¹
[2]
  Ratio: 93600 M⁻¹ s⁻¹

## C=CC(=O)NCCNC(=O)c1sc2nccc3c2c1NC(=O)N3c1ccc(Oc2ccccc2)cc1C
[1]
  Kinact: 0.000407 s⁻¹
[2]
  Ratio: 7840 M⁻¹ s⁻¹

## C=CC(=O)N1CC[C@@H](NC(=O)c2sc3nccc4c3c2NC(=O)N4c2ccc(Oc3ccccc3)cc2C)C1
[1]
  Kinact: 0.000346 s⁻¹
[2]
  Ratio: 12000 M⁻¹ s⁻¹

## C=CC(=O)N1CCC[C@@H](NC(=O)c2sc3nccc4c3c2NC(=O)N4c2ccc(Oc3ccccc3)cc2F)C1
[1]
  Kinact: 0.000348 s⁻¹
[2]
  Ratio: 37800 M⁻¹ s⁻¹

## C=CC(=O)N1CC[C@H](NC(=O)c2sc3nccc4c3c2NC(=O)N4c2ccc(Oc3ccccc3)cc2C)C1
[1]
  Kinact: 0.000302 s⁻¹
[2]
  Ratio: 1390 M⁻¹ s⁻¹
